pIC50: −log10 of the molar value.
Tests used:
Human CARM1 (PRMT4) = Human CARM1 (PRMT4) (Homo sapiens (Human), UniProt Q86X55); experiment: CARM1 enzyme assay on peptide substrate (3H-SAM Flashplate); conditions: read-out: Biochem IC50; Biochemical potencies, classification codes
[1] = test system: asymmetric di-methyl PABP1 in RKO cells; experiment: RKO methylation assay, In Cell Western (ICW) for asymmetric di-methyl PABP1; conditions: read-out: Cellular IC50; Cellular potencies; PABP1me2a ICW

Protein sequences, listed by entry. Tags and fused reporters are not part of them. Chains listed by the source or under a name are the forms on record and can include a tag or linker.
UniProt Q86X55, with tags, fused parts or gaps limits assumed: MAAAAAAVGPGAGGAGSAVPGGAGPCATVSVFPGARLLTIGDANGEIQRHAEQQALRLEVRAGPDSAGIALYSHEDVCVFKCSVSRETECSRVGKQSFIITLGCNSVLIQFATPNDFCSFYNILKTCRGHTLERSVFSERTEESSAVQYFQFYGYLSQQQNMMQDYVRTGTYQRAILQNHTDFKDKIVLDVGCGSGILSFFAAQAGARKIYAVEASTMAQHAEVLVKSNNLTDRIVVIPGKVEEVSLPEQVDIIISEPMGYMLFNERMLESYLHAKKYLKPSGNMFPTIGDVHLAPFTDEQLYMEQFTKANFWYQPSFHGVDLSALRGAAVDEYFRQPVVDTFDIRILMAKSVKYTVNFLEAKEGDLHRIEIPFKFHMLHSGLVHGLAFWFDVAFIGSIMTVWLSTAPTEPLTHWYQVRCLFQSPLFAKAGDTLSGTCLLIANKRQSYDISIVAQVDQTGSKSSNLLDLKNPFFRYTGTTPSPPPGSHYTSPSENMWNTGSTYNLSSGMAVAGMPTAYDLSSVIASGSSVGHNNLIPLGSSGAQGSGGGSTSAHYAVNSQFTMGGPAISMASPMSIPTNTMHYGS

Compound | pIC50 (Human CARM1 (PRMT4)) | pIC50 [1]
CNCC(O)COc1cccc(-c2nc(NCCCN3CCCC3=O)cc(-c3c(C)noc3C)n2)c1 (centres unmarked) | > 7.00 | 4.70 to 5.00
CNCC(O)COc1cccc(-c2nc(-c3c(C)noc3C)cc(N3CCN(CC(F)F)[C@@H](C)C3)n2)c1 (some centres unmarked) | > 7.00 | > 5.30
CNC[C@@H](O)COc1ccc(Cl)c(-c2nc(-c3c(C)noc3C)c(F)c(C3Cc4cnn(C)c4C3)n2)c1 (some centres unmarked) |  | > 5.30
